{"source": "patent US7809428B2", "about": "“Devices for detection and therapy of atheromatous plaque” (The General Hospital Corporation, priority 2001, dated 2010)", "tested_on": "balloon-injured abdominal aorta plaque", "assay": "In vivo photodynamic therapy of rabbit aorta through flowing blood", "details": "injected 24 hours before light, approximately 665 nm, approximately 100 J/cm"}
{"substance": "Mal-BSA-ce6", "values": [{"measurement": "short-term toxicity of PDT in living rabbits", "value": "no short-term toxicity"}]}
